{"source": "patent US20120277180A1", "about": "“Cofactors and Methods for Use for Individuals” (VITAPATH GENETICS, INC, priority 2009, published 2012)", "origin": "cited, not measured here", "details": "upper level of intake considered safe for adults; cited from earlier work"}
{"substance": "Vitamin E", "values": [{"measurement": "UL (Upper Limit)", "result": 1000, "unit": "mg"}]}
